In patent publication US20170333564:

Target: T1, P2, myr-KYCCSRK (hBVR-based peptide)
T1 chain: KYCCSRK

B1: Insulin receptor β-subunit (IRK), purified, from Enzo Life Sciences (protein)
chain: RKRQPDGPLGPLYASSNPEYLSASDVFPCSVYVPDEWEVSREKITLLRELGQGSFGMVYEGNARDIIKGEAETRVAVKTVNESASLRERIEFLNEASVMKGFTCHHVVRLLGVVSKGQPTLVVMELMAHGDLKSYLRSLRPEAENNPGRPPPTLQEMIQMAAEIADGMAYLNAKKFVHRDLAARNCMVAHDFTVKIGDFGMTRDIYETDYYRKGGKGLLPVRWMAPESLKDGVFTTSSDMWSFGVVLWEITSLAEQPYQGLSNEQVLKFVMDGGYLDQPDNCPERVTDLMRMCWQFNPKMRPTFLEIVNLLKDDLHPSFPEVSFFHSEENKAPESEELEMEFEDMENVPLDRSSHCQREEAGGRDGGSSLGFKRSYEEHIPYTHMNGGKKNGRILTLPRSNPS
IRK kinase assay in vitro, peptide as substrate and activator: P2 is both a substrate and activator of IRK kinase activity in vitro
